# Laboratory results as given in PubChem BioAssay AID1508642 (National Center for Advancing Translational Sciences (NCATS), 2021).
# The entries are a selection whose mix differs from that of the whole data set. Records with an inconclusive call do not appear. Calls of active or inactive are those of the source. Calls come from the whole dose curve; as a rule, active = well fitted cell-killing curve with a large enough effect; inconclusive = small, poorly fitted or top-dose-only effect, or effect the other way; inactive = flat fitted curve, though single readings scatter.
# Assay: Cell viability qHTS assay in S16 Pmp22-F2sN cells; note: nearly all actives have a fitted effect of over 65% in size
# Settings: S16 Pmp22-F2sN Schwann cells (luciferase reporters placed in the Pmp22 gene) viability, CellTiter-Glo, 24 h; at 57.5 µM (top of the series)
# Text: Assay Provider: Jim Inglese Ph.D. National Center for Advancing Translational Science, National Institutes of Health, Rockville, MD CMT is a heterogeneous group of neurological disorders that affect approximately 1 in 2,500 people. In particular, the most common form of CMT, CMT1A is genetically linked to the duplication of the PMP22 gene which leads to Schwann cell overexpression, thus manifesting itself as a typical case of dose-sensitive diseases. To identify small molecule compounds that can mediate the expression of PMP22 we developed a phenotypic assay screening strategy by utilizing genome editing techniques to construct Schwann cell lines containing novel reporter technology to monitor the transcriptional or translational regulation of PMP22. For high sensitivity we use a bioluminescent reporter system embedded in the 3' UTR of the PMP22 gene (S16(c9) Pmp22-F2sN) to identify compounds that inhibit gene expression. […] We can further discriminate the effect of all transcriptionally active molecules on PMP22 translation or stability with an assay that incorporates a short NLuc peptide (HiBiT) at the C-terminus of expressed PMP22 (S16(f8) PMP22-HiBiT) allowing alpha complementation and luminescence detection of membrane-associated PMP22 protein. These assays were screened against the NCATS Sytravon Library Collection. Miniaturization of these assays to 1536-well plate format for quantitative high throughput screening (qHTS) yielded rich data sets immediately from the qHTS assay (S16(c9) Pmp22-F2sN), when compared with data from a cell viability assay (Cell TiterGlo) to identify compounds that decreased the output signals through cellular toxicity to streamline the selection process of actives for subsequent characterization using the HiBiT assay (S16(f8) PMP22-HiBiT).
# Cell viability assay in S16 Pmp22-F2sN cells PROTOCOL TABLE (format as described by Inglese J, Shamu CE and Guy RK. 2007) SEQUENCE No. (e.g., 1, 2, 3, etc.); […] (e.g., Cells, Incubation, Reagent, etc.); VALUE and DESCRIPTION. 1. Cells. Add 500-1,000 cells in 4 uL in growth media (DMEM High Glucose, No Phenol Red media + 10% heat-inactivated FBS + 1% Pen/Strep supplemented media) per well into Greiner 1536-well white/solid bottom high base, TC-treated plates. 2. Compounds. Library compounds and controls added at 23nL per well, transferred by Pin Tool. 3. Incubation. Incubate plates at 37C, 5% CO2, 95% RH for 24 h. 4. Reagent. Add 3uL CellTiter-Glo per well of Greiner 1536-well plates. 5. Incubation. Incubate plates at room temperature for 15 min., protect from light. 6. Detector. FLuc luminescence measured using CCD-based camera (Viewlux). NOTES (numbers refer to Sequence numbers above; values are from representative experiments) 6. Luminescence Read: Clear filter; Exposure = 1 sec, Gain = High, Speed = Slow, Binning = 2X REFERENCES: 1. Inglese J, Shamu CE and Guy RK, Reporting data from high throughput screening of small molecule libraries, Nature Chemical Biology, 2007, 3(8): 438-441. doi.org/10.1038/nchembio0807-438 2. Yasgar A, Shinn P, Jadhav A, Auld DS, Michael S, Zheng W, Austin CP, Inglese J and Simeonov A, Compound Management for Quantitative High-Throughput Screening. J. Assoc. Lab. Auto., 2008, 13: 79-89. doi: 10.1016/j.jala.2007.12.004
# % is set by controls: 0 for no effect and ±100 for the full control effect.
row,SMILES,"activity change, negative = cytotoxicity"
1,O=C(NCC1(N2CCOCC2)CCCCC1)c1ccccc1[N+](=O)[O-],inactive: 2.68%
2,O=C(NCC1(N2CCOCC2)CCCCC1)c1ccc([N+](=O)[O-])cc1,inactive: 19.4%
3,O=C(NCC1(N2CCOCC2)CCCCC1)c1ccccc1,inactive: 20%
4,COc1cc(C(=O)NCC2(N3CCOCC3)CCCCC2)cc(OC)c1OC,inactive: 23.6%
5,CN(C)C1(CNC(=O)c2ccc(C(C)(C)C)cc2)CCCCC1,inactive: -0.632%
6,Cc1ccccc1C(=O)NCC1(N(C)C)CCCCC1,inactive: 0.0976%
7,CC(C)(C)c1ccc(C(=O)NCC2(N3CCOCC3)CCCCC2)cc1,inactive: -0.424%
8,COc1ccccc1C(=O)NCC1(N2CCOCC2)CCCCC1,inactive: 27.6%
9,O=C(NCC1(N2CCOCC2)CCCCC1)c1ccc(Cl)cc1,inactive: 13.8%
10,CCCCOc1ccccc1C(=O)NCC1(N2CCOCC2)CCCCC1,inactive: -5.61%
11,O=C(NCC1(N2CCOCC2)CCCCC1)c1ccccc1Br,inactive: 30%
12,CCOc1ccc(C(=O)NCC2(N3CCOCC3)CCCCC2)cc1,inactive: 27.1%
